The values that follow come from PubChem BioAssay AID878 (University of Pittsburgh Molecular Library Screening Center, 2007).

The entries are a selection whose mix differs from that of the whole data set. The source made the active and inactive calls.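 Rule for the calls: active = activation of at least 50% relative to the plate's high and low controls in the primary single-dose screen; inactive = activation below 50%.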

The nature of the test: compounds producing H2O2 with reducing agent – biochemical, NIH compound library profiling, artefact control for MLSCN library redox annotation, primary screen (AID 878).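 Note: compound incubated with DTT at 0.8 mM final as the reducing agent.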 To be noted: DTT-dependent redox cycling H2O2, phenol red/HRP absorbance; at 10 µM; hits give high values; 100% = 100 µM peroxide control, 0% = buffer.
`COc1ccc(C(=O)NCC2(N3CCCCC3)CCCCC2)c(OC)c1OC`: the activation is inactive: -0.53%. `O=C(NCC1(N2CCOCC2)CCCCC1)c1cc2ccccc2o1`: the activation was inactive: -16%. Regarding `CCOC(=O)N1CCC(Nc2ccc(OC)cc2)CC1`, the activation was inactive: -1.7%. The same measure for `O=C(OC1CN2CCC1CC2)C1c2ccccc2Oc2ccccc21` (stereo not given): inactive: -0.1%. The same measure for `COc1ccc(NC2CCN(CCc3ccccc3)CC2)c(OC)c1`: inactive: -0.15%; for `O=C(NCC1(N2CCCCC2)CCCCC1)c1cccc([N+](=O)[O-])c1`: inactive: -0.04%; for `N#CC1(Nc2ccccc2)CCN(CCc2ccccc2)CC1`: inactive: -0.55%.

With `CN1CCN(CCOC(=O)C(O)(c2ccccc2)c2ccccc2)CC1`, the activation is inactive: -0.4%. The same measure for `COc1ccc(NC2CCN(C(=O)OC(C)(C)C)CC2)cc1`: inactive: -1.34%; for `O=C(NCC1(N2CCOCC2)CCCCC1)c1cc(=O)[nH]c2ccccc12`: inactive: 0.58%; for `COc1ccc(CN(CCCl)CCCl)cc1Cl`: inactive: 0.28%. The figure for `CN(C)c1cccc(C(=O)NCC2(N3CCCCC3)CCCCC2)c1` is inactive: -1.98%; for `CC(C)c1ccc(NC2CCN(C(=O)OC(C)(C)C)CC2)cc1` it is inactive: -0.28%. The figure for `CN1CCC(Nc2cccc(F)c2)CC1` is inactive: 2.19%. In the case of `COc1ccc(C(=O)NCC2(N3CCOCC3)CCCCC2)cc1OC`, the activation was inactive: -0.08%. The same measure for `N/C(=N\O)c1c(N)no[n+]1[O-]`: inactive: -0.94%; for `O=C(OC1CN2CCC1CC2)C1c2ccccc2C=Cc2ccccc21` (stereo not given): inactive: -0.24%. The same measure for `N#Cc1ccc(C(=O)NCC2(N3CCCCC3)CCCCC2)cc1`: inactive: -0.41%. The same measure for `c1ccc(CN2CCC(Nc3ccccc3)CC2)cc1`: inactive: 2.6%; for `CCN1CCC(Nc2cccc(F)c2)CC1`: inactive: 0.47%; for `CN(C)c1ccc(C(=O)NCC2(N3CCCCC3)CCCCC2)cc1`: inactive: -0.22%. Regarding `CCOc1ncccc1C(=O)NCC1(N2CCOCC2)CCCCC1`, the activation was inactive: -0.62%. The figure for `CC(C)(C)OC(=O)N1CCC(Nc2ccccc2)CC1` is inactive: -0.13%; for `CCC(CO)(C(=O)OC1CN2CCC1CC2)c1ccccc1` (stereo not given) it is inactive: 1.32%. In the case of `COc1cc(OC)cc(C(=O)NCC2(N3CCOCC3)CCCCC2)c1`, the activation is inactive: -1.24%.
